Results: patent US9932341B2, “Use of pyrazolopyrimidine derivatives for the treatment of PI3K-delta related disorders” (Incyte Corporation, priority 2013, dated 2018)
Structures can show the parent of a compound that is named as a salt.

Sequences of proteins named here, by UniProt entry; tags and fusion partners are left off. A change or cut given only in a name is not applied to a line headed by its entry.
UniProt O00329: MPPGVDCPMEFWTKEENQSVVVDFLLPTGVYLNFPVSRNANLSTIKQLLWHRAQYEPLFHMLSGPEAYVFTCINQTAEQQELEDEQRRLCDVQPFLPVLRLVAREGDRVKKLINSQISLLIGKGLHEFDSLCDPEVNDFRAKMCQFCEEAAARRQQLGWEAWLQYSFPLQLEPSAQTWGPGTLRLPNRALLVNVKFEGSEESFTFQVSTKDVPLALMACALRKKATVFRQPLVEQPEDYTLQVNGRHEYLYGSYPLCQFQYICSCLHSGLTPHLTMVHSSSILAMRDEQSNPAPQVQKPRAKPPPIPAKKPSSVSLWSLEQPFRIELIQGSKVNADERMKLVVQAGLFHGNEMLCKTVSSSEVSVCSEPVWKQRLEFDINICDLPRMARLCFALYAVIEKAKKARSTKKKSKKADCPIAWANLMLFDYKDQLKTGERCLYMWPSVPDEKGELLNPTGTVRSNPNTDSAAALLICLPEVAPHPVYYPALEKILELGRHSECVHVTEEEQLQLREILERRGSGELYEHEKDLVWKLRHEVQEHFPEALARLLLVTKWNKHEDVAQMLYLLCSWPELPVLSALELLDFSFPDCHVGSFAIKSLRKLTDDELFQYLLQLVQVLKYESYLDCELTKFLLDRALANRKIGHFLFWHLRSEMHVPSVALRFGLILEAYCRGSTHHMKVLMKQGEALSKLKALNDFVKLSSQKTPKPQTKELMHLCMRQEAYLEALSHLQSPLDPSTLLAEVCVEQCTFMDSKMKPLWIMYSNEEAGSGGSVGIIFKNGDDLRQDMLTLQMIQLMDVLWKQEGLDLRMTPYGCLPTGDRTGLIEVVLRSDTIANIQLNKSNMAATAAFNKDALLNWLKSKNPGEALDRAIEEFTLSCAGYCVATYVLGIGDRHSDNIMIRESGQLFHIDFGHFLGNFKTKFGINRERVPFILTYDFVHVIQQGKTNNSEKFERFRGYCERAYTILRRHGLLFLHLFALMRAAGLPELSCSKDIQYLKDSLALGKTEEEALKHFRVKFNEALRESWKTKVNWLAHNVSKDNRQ

Molecular target: PI3Kδ (p110δ/p85α) (Homo sapiens (Human), UniProt O00329)
Test: PI3Kδ Scintillation Proximity Assay (Example A3)
Format: biochemical
Conditions: 20 μM ATP, 20 μM PIP2, 4 nM PI3Kδ, read-out: PI3Kδ SPA IC50
Description: [γ-^33P]ATP (10 mCi/mL) was purchased from PerkinElmer (Waltham, Mass.). Lipid kinase substrate, D-myo-Phosphatidylinositol 4,5-bisphosphate (PtdIns(4,5)P2)D (+)-sn-1,2-di-O-octanoylglyceryl, 3-O-phospho linked (PIP2), CAS 204858-53-7, was purchased from Echelon Biosciences (Salt Lake City, Utah). PI3Kδ (p110δ/p85α) was purchased from Millipore (Bedford, Mass.). ATP, MgCl2, DTT, EDTA, MOPS and CHAPS were purchased from Sigma-Aldrich (St. Louis, Mo.). Wheat Germ Agglutinin (WGA) YSi SPA Scintillation Beads was purchased from GE healthcare life sciences (Piscataway, N.J.).
The kinase reaction was conducted in polystyrene 384-well matrix white plate from Thermo Fisher Scientific in a final volume of 25 μL. Inhibitors were first diluted serially in DMSO and added to the plate wells before the addition of other reaction components. The final concentration of DMSO in the assay was 0.5%. The PI3K assays were carried out at room temperature in 20 mM MOPS, pH 6.7, 10 mM MgCl2, 5 mM DTT and CHAPS 0.03%. […] After the plate sealing, plates were shaken overnight at room temperature and centrifuged at 1800 rpm for 10 minutes, the radioactivity of the product was determined by scintillation counting on Topcount (PerkinElmer). […] IC50 data for the Examples is presented in Table 2 as determined by Assay A3. IC50 data for Examples 361 and 363 is shown in Table 3 as determined by Assay A2.

IC50 | SMILES
< 0.01 µM | COc1c(C(C)n2nc(C)c3c(N)ncnc32)cc(Cl)c(C)c1C1CC(O)C1 (centres unmarked) [Example 166, 3-{3-[1-(4-Amino-3-methyl-1H-pyrazolo[3,4-d]pyrimidin-1-yl)ethyl]-5-chloro-2-methoxy-6-methylphenyl}cyclobutanol trifluoroacetate]
< 0.01 µM | COc1c(C(C)n2nc(C)c3c(N)ncnc32)cc(Cl)c(F)c1C1CN(C(C)C)C1 (centres unmarked) [Example 13, 1-{1-[5-Chloro-4-fluoro-3-(1-isopropylazetidin-3-yl)-2-methoxyphenyl]ethyl}-3-methyl-1H-pyrazolo[3,4-d]pyrimidin-4-amine bis(trifluoroacetate)]
